Earlier results, collected in paper PMC8015229, “Focus on Human Monoamine Transporter Selectivity. New Human DAT and NET Models, Experimental Validation, and SERT Affinity Exploration” (ACS Chemical Neuroscience, 2020).

Target: SERT
Conditions: binding affinity for rat transporter; cited from earlier work

**Q.** For `CNCCC(Oc1ccccc1OC)c1ccccc1` (stereo not shown) [compound 8, nisoxetine], which “SERT pKi exp” value is on record?
**A.** Its value is 6.8.
